Experimental data taken from ChEMBL document CHEMBL5325463, “Novel spiroindoline quinazolinedione derivatives as anticancer agents and potential FLT3 kinase inhibitors” (Bioorg Med Chem, 2023).

Protein sequences, listed by entry. Tags and fused reporters are not part of them. Lines headed by an entry give the natural chain unless they say otherwise; changes in a name come on top.
UniProt Q9Y243: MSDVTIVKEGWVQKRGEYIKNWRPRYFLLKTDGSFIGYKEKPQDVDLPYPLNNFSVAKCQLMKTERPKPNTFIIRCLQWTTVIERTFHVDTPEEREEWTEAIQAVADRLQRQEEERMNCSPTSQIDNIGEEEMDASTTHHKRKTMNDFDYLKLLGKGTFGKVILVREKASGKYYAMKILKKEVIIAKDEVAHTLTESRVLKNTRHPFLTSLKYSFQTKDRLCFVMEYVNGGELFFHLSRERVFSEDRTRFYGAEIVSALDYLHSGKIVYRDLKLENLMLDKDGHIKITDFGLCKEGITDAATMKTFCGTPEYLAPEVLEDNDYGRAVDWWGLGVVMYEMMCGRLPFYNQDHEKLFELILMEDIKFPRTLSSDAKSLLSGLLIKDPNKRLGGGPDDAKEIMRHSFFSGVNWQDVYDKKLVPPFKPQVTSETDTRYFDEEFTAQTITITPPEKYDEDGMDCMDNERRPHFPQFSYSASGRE
UniProt P09619, whole entry: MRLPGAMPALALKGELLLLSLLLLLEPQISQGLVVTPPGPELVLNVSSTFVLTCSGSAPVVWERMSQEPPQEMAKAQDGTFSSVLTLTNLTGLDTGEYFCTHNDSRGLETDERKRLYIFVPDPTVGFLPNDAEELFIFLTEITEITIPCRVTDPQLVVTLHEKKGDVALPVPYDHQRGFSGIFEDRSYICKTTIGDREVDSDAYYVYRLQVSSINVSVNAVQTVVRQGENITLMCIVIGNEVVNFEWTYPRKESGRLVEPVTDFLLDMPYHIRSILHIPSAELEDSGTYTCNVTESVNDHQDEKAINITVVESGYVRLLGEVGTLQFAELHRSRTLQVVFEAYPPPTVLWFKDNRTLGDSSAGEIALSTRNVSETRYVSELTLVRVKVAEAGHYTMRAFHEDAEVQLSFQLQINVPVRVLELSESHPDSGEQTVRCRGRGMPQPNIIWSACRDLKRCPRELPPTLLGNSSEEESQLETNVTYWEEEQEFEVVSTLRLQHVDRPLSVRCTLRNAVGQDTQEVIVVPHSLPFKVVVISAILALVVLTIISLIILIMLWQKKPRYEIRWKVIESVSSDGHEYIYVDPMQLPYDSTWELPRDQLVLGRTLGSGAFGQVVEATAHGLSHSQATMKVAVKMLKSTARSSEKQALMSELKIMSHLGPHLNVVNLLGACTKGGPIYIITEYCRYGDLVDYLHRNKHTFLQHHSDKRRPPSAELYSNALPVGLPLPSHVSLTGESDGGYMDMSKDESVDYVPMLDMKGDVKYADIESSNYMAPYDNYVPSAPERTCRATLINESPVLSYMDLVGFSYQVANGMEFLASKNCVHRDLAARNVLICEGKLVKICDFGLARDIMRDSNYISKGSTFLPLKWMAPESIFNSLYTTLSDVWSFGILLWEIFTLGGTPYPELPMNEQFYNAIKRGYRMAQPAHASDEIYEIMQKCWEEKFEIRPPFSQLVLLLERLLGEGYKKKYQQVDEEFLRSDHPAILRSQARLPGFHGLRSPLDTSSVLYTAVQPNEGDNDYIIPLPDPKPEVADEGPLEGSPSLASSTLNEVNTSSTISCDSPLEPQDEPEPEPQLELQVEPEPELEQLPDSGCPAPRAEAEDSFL
UniProt P07949, whole entry: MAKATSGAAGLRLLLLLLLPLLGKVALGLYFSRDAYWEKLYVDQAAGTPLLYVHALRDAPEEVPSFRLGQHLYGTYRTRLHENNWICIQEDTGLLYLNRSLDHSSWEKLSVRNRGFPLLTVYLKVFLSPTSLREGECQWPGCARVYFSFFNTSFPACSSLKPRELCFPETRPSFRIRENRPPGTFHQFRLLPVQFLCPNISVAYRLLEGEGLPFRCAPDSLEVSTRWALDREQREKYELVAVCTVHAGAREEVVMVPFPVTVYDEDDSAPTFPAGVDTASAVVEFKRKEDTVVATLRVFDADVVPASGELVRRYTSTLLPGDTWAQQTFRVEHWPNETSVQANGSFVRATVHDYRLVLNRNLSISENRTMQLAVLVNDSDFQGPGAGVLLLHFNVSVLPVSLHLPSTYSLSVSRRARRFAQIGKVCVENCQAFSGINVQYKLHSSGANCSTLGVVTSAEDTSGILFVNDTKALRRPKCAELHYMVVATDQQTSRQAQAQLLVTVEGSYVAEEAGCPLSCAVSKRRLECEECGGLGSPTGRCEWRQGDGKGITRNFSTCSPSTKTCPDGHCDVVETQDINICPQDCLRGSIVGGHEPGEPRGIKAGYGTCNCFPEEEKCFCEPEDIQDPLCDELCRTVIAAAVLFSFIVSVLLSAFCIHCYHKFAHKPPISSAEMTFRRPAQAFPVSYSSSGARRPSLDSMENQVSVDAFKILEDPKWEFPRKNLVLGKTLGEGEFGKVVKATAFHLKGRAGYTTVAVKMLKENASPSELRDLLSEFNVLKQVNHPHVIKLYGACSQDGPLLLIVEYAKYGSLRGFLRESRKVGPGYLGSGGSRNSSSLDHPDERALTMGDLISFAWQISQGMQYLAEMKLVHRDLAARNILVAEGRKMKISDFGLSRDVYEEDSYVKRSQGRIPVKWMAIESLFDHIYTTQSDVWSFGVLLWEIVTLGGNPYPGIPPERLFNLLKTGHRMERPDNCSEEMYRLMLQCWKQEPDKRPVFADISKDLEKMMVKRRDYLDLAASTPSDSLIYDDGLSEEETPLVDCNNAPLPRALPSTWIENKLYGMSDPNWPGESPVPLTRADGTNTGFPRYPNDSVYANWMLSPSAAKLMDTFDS
UniProt P10721, whole entry: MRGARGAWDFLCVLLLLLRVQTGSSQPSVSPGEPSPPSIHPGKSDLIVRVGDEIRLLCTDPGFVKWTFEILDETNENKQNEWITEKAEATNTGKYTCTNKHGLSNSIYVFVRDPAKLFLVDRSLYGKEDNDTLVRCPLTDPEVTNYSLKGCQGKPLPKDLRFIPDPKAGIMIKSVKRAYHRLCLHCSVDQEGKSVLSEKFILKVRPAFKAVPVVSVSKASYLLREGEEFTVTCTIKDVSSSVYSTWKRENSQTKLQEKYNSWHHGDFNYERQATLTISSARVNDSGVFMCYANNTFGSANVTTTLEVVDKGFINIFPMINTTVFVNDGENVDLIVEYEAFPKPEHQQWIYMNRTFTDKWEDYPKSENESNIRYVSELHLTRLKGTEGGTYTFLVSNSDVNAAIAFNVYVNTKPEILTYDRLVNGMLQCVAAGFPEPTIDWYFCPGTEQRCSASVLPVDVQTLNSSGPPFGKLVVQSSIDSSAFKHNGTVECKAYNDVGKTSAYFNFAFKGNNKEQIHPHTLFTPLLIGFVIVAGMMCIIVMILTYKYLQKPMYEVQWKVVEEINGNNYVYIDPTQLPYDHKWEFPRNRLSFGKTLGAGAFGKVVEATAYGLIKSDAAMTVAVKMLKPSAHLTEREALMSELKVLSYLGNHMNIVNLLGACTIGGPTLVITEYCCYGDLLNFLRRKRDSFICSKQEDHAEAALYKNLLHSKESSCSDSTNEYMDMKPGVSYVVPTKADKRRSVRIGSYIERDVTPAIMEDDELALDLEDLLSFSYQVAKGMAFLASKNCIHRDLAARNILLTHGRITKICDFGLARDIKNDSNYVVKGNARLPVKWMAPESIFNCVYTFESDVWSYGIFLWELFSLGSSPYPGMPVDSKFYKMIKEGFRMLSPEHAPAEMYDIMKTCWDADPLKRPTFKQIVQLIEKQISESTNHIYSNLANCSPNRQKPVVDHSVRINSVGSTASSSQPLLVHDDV
UniProt P27986, whole entry, looked up: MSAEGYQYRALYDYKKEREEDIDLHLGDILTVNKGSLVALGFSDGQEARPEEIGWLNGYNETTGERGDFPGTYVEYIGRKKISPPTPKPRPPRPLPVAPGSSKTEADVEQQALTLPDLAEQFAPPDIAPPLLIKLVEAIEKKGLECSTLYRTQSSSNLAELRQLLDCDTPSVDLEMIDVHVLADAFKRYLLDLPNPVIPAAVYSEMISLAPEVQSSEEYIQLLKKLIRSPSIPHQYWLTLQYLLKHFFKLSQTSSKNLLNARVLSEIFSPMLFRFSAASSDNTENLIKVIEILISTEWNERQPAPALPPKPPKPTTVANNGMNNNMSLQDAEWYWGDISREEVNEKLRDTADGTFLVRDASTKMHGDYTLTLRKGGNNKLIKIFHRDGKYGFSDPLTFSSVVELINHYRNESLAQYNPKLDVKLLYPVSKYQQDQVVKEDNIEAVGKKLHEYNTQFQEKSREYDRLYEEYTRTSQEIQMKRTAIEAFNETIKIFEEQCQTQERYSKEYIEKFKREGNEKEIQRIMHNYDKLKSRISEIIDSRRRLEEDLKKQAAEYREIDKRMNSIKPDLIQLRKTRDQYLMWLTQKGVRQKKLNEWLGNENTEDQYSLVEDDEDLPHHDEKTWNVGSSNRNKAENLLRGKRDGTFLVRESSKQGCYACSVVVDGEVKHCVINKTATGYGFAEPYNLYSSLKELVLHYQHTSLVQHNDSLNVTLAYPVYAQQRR
UniProt P31749: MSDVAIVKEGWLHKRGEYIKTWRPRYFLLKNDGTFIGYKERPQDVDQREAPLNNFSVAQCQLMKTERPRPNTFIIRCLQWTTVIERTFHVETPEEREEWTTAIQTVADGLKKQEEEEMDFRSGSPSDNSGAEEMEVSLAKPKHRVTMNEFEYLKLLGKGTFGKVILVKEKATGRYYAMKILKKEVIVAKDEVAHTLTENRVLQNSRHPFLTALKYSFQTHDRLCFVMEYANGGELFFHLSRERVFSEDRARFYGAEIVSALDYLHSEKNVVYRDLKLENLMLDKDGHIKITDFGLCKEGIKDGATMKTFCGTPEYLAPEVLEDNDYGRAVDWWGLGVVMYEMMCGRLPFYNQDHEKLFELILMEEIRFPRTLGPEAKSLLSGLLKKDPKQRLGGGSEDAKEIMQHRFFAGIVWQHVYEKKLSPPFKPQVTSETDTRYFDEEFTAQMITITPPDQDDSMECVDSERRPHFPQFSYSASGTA
UniProt P28482, whole entry: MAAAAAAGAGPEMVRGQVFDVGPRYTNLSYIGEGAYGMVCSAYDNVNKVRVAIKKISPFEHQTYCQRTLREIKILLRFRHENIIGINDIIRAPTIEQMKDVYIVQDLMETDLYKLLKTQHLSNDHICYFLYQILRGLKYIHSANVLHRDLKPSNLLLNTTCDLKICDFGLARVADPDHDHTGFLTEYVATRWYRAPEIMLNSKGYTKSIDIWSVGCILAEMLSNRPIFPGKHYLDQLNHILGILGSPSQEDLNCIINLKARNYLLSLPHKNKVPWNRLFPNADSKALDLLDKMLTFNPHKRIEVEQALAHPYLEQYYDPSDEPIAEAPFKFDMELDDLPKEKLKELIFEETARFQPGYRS
UniProt P17948, whole entry: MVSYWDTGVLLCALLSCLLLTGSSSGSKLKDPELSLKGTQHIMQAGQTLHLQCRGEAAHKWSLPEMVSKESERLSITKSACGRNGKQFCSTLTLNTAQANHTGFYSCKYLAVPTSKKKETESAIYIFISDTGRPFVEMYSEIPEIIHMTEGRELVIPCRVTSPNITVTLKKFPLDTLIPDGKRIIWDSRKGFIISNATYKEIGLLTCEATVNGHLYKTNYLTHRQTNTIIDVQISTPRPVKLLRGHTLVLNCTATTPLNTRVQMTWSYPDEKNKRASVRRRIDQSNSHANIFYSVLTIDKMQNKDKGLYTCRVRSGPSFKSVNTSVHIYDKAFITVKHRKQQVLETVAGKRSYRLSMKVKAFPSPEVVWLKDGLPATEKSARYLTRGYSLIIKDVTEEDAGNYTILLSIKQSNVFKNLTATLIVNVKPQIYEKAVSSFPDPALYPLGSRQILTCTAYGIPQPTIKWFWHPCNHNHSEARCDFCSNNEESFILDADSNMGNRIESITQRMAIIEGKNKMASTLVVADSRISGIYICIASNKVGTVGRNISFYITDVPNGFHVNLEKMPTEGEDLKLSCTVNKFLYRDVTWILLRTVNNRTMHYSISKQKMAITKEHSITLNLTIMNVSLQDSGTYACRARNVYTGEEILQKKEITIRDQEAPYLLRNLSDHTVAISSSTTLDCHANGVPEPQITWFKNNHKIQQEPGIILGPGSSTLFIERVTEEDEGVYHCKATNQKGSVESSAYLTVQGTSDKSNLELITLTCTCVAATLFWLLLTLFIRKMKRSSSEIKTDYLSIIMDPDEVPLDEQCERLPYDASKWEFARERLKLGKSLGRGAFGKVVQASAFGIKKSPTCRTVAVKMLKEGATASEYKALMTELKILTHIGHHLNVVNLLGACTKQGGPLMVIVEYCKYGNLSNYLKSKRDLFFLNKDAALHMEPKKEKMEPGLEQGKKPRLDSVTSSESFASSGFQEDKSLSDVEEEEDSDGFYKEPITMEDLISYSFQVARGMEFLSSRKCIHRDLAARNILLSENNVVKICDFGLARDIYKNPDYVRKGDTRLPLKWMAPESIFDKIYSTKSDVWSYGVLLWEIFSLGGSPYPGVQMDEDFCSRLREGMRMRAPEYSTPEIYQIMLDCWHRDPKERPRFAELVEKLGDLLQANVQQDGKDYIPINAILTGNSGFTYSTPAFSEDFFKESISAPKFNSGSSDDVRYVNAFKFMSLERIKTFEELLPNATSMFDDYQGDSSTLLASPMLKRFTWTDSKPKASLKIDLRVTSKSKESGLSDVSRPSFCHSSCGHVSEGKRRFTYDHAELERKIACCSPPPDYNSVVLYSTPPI

Experiments:
[1] = molecular target: RAC-gamma serine/threonine-protein kinase (Homo sapiens) (UniProt Q9Y243); assay: Inhibition of AKT3 (unknown origin) at 10 uM by radiometric assay relative to control
[2] = molecular target: Vascular endothelial growth factor receptor 2 (Homo sapiens) (UniProt P35968); assay: Inhibition of KDR (unknown origin) at 10 uM by radiometric assay relative to control
[3] = molecular target: Serine/threonine-protein kinase mTOR (Homo sapiens) (UniProt P42345); assay: Inhibition of MTOR (unknown origin) at 10 uM by radiometric assay relative to control
[4] = molecular target: Platelet-derived growth factor receptor beta (Homo sapiens) (UniProt P09619); assay: Inhibition of PDGFRB (unknown origin) at 10 uM by radiometric assay relative to control
[5] = molecular target: Proto-oncogene tyrosine-protein kinase receptor Ret (Homo sapiens) (UniProt P07949); assay: Inhibition of RET (unknown origin) at 10 uM by radiometric assay relative to control
[6] = molecular target: Mast/stem cell growth factor receptor Kit (Homo sapiens) (UniProt P10721); assay: Inhibition of KIT (unknown origin) at 10 uM by radiometric assay relative to control
[7] = molecular target: T1, Tyrosine-protein kinase receptor UFO (Homo sapiens) (UniProt P30530); assay: Inhibition of AXL (unknown origin) at 10 uM by radiometric assay relative to control
T1 sequence (whole entry): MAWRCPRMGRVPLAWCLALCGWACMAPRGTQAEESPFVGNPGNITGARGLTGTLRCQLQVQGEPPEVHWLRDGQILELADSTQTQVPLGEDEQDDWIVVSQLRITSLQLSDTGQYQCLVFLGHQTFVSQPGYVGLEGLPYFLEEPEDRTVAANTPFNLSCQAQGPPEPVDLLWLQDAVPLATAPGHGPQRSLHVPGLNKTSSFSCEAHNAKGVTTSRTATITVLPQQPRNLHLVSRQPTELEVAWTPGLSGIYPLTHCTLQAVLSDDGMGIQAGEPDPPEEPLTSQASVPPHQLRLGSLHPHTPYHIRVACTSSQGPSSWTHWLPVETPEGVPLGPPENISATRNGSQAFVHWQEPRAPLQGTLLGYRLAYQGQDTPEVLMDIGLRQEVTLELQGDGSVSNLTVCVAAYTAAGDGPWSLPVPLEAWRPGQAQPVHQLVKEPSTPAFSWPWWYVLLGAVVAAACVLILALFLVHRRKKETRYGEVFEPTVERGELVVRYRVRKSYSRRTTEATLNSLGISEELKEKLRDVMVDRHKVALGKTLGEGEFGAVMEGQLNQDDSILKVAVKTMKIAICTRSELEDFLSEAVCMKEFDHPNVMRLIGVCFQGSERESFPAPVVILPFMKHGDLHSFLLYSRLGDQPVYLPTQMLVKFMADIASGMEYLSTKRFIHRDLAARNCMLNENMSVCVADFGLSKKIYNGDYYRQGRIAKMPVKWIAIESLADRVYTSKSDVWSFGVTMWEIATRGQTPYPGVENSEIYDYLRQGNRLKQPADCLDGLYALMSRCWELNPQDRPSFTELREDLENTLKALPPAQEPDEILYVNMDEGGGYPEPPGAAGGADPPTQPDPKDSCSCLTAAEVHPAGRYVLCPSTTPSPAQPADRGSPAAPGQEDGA

[8] = molecular target: Hepatocyte growth factor receptor (Homo sapiens) (UniProt P08581); assay: Inhibition of MET (unknown origin) at 10 uM by radiometric assay relative to control
[9] = molecular target: Macrophage colony-stimulating factor 1 receptor (Homo sapiens) (UniProt P07333); assay: Inhibition of CSF1R (unknown origin) at 10 uM by radiometric assay relative to control
[10] = molecular target: PI3K p110 beta/p85 alpha (Homo sapiens) (UniProt P27986+P42338); assay: Inhibition of PIK3CB/PIK3R1 (unknown origin) at 10 uM by radiometric assay relative to control; assay type: protein-complex assay
[11] = molecular target: Platelet-derived growth factor receptor alpha (Homo sapiens) (UniProt P16234); assay: Inhibition of PDGFRA (unknown origin) at 10 uM by radiometric assay relative to control
[12] = molecular target: Receptor-type tyrosine-protein kinase FLT3 (Homo sapiens) (UniProt P36888); assay: Inhibition of human FLT3 at 25 uM by radiometric assay relative to control
[13] = system: Receptor-type tyrosine-protein kinase FLT3 (Homo sapiens), P36888 [D835Y]; assay: Inhibition of human FLT3 D835Y mutant at 10 uM by radiometric assay relative to control
[14] = molecular target: Epidermal growth factor receptor (Homo sapiens) (UniProt P00533); assay: Inhibition of EGFR (unknown origin) at 10 uM by radiometric assay relative to control
[15] = molecular target: RAC-alpha serine/threonine-protein kinase (Homo sapiens) (UniProt P31749); assay: Inhibition of AKT1 (unknown origin) at 10 uM by radiometric assay relative to control
[16] = system: Receptor-type tyrosine-protein kinase FLT3 (Homo sapiens), P36888 [D835Y]; assay: Inhibition of human FLT3 D835Y mutant at 25 uM by radiometric assay relative to control
[17] = molecular target: Receptor-type tyrosine-protein kinase FLT3 (Homo sapiens) (UniProt P36888); assay: Inhibition of human FLT3 at 10 uM by radiometric assay relative to control
[18] = molecular target: Mitogen-activated protein kinase 1 (Homo sapiens) (UniProt P28482); assay: Inhibition of MAPK1 (unknown origin) at 10 uM by radiometric assay relative to control
[19] = molecular target: T2, Macrophage-stimulating protein receptor (Homo sapiens) (UniProt Q04912); assay: Inhibition of MST1R (unknown origin) at 10 uM by radiometric assay relative to control
T2 sequence (whole entry): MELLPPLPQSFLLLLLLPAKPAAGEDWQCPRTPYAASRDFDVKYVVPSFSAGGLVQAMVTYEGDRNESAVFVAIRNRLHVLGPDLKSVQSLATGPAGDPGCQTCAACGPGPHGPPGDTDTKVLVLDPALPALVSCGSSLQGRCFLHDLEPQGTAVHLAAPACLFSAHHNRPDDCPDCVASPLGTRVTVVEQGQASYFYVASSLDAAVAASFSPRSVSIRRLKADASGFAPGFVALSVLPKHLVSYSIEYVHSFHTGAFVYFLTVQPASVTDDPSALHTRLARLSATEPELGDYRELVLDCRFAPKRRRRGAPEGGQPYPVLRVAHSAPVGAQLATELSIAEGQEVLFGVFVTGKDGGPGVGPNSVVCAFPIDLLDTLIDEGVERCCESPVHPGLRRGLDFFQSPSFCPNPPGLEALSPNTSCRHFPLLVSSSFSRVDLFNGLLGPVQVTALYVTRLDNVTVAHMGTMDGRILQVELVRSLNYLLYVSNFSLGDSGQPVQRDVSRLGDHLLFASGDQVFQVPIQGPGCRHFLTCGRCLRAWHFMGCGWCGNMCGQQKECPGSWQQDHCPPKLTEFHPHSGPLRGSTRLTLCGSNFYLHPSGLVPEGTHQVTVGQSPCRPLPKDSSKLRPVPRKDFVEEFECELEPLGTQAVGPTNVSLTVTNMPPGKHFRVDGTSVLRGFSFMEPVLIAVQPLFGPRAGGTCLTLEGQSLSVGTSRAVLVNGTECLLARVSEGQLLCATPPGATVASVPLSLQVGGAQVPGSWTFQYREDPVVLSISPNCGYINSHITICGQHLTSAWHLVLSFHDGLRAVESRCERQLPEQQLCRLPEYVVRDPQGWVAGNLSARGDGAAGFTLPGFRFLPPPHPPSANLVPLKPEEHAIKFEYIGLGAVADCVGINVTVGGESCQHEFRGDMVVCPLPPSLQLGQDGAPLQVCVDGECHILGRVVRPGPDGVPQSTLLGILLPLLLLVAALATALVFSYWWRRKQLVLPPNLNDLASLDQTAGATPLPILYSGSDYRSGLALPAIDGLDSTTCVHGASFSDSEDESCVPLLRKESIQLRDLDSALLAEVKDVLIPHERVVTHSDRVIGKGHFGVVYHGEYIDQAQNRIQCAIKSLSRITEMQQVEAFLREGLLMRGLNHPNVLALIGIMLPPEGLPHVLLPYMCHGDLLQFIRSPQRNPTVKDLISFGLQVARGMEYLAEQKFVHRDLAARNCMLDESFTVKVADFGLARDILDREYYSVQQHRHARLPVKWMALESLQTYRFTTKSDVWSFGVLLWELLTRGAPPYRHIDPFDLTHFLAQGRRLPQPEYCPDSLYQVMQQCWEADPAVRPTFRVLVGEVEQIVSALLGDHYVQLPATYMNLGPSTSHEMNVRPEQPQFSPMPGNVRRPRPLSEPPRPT

[20] = molecular target: Vascular endothelial growth factor receptor 1 (Homo sapiens) (UniProt P17948); assay: Inhibition of FLT1 (unknown origin) at 10 uM by radiometric assay relative to control
[21] = molecular target: ALK tyrosine kinase receptor (Homo sapiens) (UniProt Q9UM73); assay: Inhibition of ALK (unknown origin) at 10 uM by radiometric assay relative to control
[22] = molecular target: Dual specificity mitogen-activated protein kinase kinase 1 (Homo sapiens) (UniProt Q02750); assay: Inhibition of MAP2K1 (unknown origin) at 10 uM by radiometric assay relative to control

inhibition [2]	inhibition [4]	inhibition [5]	inhibition [6]	inhibition [7]	inhibition [8]	inhibition [9]	inhibition [11]	inhibition [12]	inhibition [13]	inhibition [16]	inhibition [17]	inhibition [19]	Compound	also measured
11%	21%	-9%	6%	-1%	38%	-10%	-2%						O=C1NC2(Nc3c(Br)cc(Br)cc31)C(=O)N(Cc1ccccc1)c1ccccc12 (centres undefined)	inhibition [1]: 26%; inhibition [3]: -3%; inhibition [10]: 3%
15%	23%	6%	-5%	9%	3%	-9%	11%	55%	23%	62%	51%	-6%	Cc1ccc(CN2C(=O)C3(NC(=O)c4cc(Br)cc(Br)c4N3)c3ccccc32)cc1 (centres undefined)	inhibition [14]: 5%; inhibition [15]: 17%; inhibition [18]: 3%; inhibition [20]: -7%
7%	12%	0%			14%			15%	-7%	5%	17%	-8%	O=C1NC2(Nc3c(Br)cc(Br)cc31)C(=O)N(Cc1ccc(Br)cc1)c1ccccc12 (centres undefined)	inhibition [21]: 3%; inhibition [22]: -6%
